Results from patent publication US6395267B1, “TNF receptor action modulation” (Yeda Research and Development Co. Ltd., priority 1992, dated 2002).

Test system: A9 transfectants expressing mutant receptors with deletion of the intracellular amino acids 405 to 426
Test: Cytocidal effect of TNF and of antibodies to hu-p55-TNF-R (neutral red uptake)
Assay type: cell-based
Details: transfectants with deletion 405 to 426; TNF acting via the endogenous murine receptors
Text: The cDNA of the human p55 TNF-R (Nophar et al., 1990) was digested with the BanII and Nhel restriction enzymes, resulting in removal of large parts of the 5′ and 3′ non-coding regions. Mutants Δ:405-426 and Δ:415-426 (FIG. 3) were generated by oligonucleotide directed mutation of this shortened form of the cDNA, using the “Altered Sites” mutagenesis kit of Promega. Stop codons were introduced after cysteine 404 (mutant Δ:405-426; amino acids in the receptor are numbered according to Loetscher et al., 1990), using the oligonucleotide 5′ CTGCTGGGCTGCTAGCCTGGAGGACAT 3′ (SEQ ID NO:3), and after glycine 414 (mutant Δ:416-426), using the oligonucleotide 5′AAGCCCTTTGCGGCTAGCCCCGCCGCCCT-3′ (SEQ ID NO:4). […]
Cells of the murine A9 line were cultured with Dulbecco's modified Eagle's Medium (DMEM), containing 10% fetal calf serum, 100 units/ml penicillin and 100 μg/ml streptomycin (growth medium). […] Of all transfectants at least three different clones were analysed in the functional assays to check for clone-to-clone variations of their properties.
Cells were seeded into 96 well plates, 24 hr before the assay at a density of 30,000 cells per well. […] After further 11 hours of incubation at 37° C., viability of the cells was assessed in a neutral red uptake assay as described before (Wallach, 1984).

human TNF: Recombinant human TNF-α produced by Genentech
response of cells to human TNF: could respond
